Measured values reported in patent US20260242729A1.

Sequences of proteins named here, by UniProt entry; tags and fusion partners are left off. Residues count along the entry.
UniProt P07766, 23-207: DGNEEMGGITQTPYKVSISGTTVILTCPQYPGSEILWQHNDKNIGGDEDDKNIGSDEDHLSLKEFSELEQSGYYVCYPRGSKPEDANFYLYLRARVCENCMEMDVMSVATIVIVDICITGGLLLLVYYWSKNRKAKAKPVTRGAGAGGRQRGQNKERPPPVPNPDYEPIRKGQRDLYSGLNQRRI

Biological target: CD3 on the surface of Jurkat cells, PBMCs and T cells (human) (UniProt P07766)
Assay: flow cytometry; after Fab-multimer staining, D-biotin and washing, remaining OKT3 Fab monomers on the cells were detected with fresh PE-labeled Strep-Tactin; live (PI-negative) cells; second dot plot from the right

- percentage of cells within gate: 0.018%
Substance: αCD3 Fab fragment derived from the monoclonal antibody OKT3, heavy chain C-terminally fused to Twin-Strep-tag (monomeric Fab)
